Values of other authors, collected in patent US7214771B2, “Nucleic acid and protein expression thereby and their involvement in stress” (University of Medicine & Dentistry of New Jersey, priority 1999, dated 2007).

Assays:
[1] = tested on: human ovarian cancer cells; settings: with cisplatin; both sensitive and resistant human ovarian cancer cells; cited from earlier work
[2] = tested on: human bladder cancer and human testicular embryonal germ cell carcinoma; settings: dipyridamole alone; cited from earlier work

OCCN(CCO)c1nc(N2CCCCC2)c2nc(N(CCO)CCO)nc(N3CCCCC3)c2n1 [dipyridamole]
enhancement of cisplatin cytotoxicity [1]: 65%
cytotoxicity of agent alone [2]: not cytotoxic
